According to ChEMBL document CHEMBL4406884, “An anthrone-based Kv7.2/7.3 channel blocker with improved properties for the investigation of psychiatric and neurodegenerative disorders” (Bioorg Med Chem Lett, 2019):
≈ marks a conversion by molar mass, not a printed value.

Columns and labels:
[1] = Kinetic solubility in […] % DMSO/water at 3.2 uM to 100 uM incubated for 18 hrs by spectrometry; type: physicochemical; details: 2.5 % DMSO/water; read-out: Kinetic_solubility
HepG2 = details: human, hepg2, 18 h
HEK293 = details: human, hek293, 18 h

Compound O=C1c2ccccc2C(Cc2c(F)cncc2F)(Cc2c(F)cncc2F)c2ccccc21 has a solubility kinetic at 18 h [1] of 27 µM (≈ 12.1 µg/mL), a CC50 (HepG2) of 114 µM and a CC50 (HEK293) of 79 µM.
